scFv variants of Ab-14 (heavy chain) against a SARS-CoV-2 spike peptide

Source: Li et al. 2023 (doi:10.1038/s41467-023-39022-2), MIT Lincoln Laboratory and A-Alpha Bio; data file from the FLAb repository.

All variants were tested on one target, the spike HR2 peptide PDVDLGDISGINAS (SARS-CoV-2).

Parent: Ab-14, a human scFv built as VH, the linker GGGGSGGGGSGGGGS, VL. Only the CDRs of the heavy chain vary.
VH: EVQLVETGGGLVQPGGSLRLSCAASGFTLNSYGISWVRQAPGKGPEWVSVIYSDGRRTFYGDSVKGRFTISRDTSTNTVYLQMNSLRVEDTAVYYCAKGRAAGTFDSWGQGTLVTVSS
VL: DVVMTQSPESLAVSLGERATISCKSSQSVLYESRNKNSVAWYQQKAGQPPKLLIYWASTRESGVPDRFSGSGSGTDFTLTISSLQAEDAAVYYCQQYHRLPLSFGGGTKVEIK

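The starting antibody came from a phage panning campaign against this peptide. The variants were designed computationally from a first round of random CDR variants and then made and measured. Their group label is 14H_GPLM_Gen (GPLM: also part of the Gaussian process libraries; Gen: genetic algorithm; a sequence that several methods proposed may carry one label only). Affinity was read by AlphaSeq, a pooled yeast mating assay with surface-displayed partners. Binding brings cells together so that they mate, and sequencing counts the barcode pairs among the diploids. Each replicate has its own calibration line, from reference interactions of the BCL2 family. Mating was done six times.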

Variants are written as CDR1, CDR2 and CDR3 of the heavy chain (limits as in the source). Parent: GFTLNSYGIS, VIYSDGRRTFYGDSVK, GRAAGTFDS. Affinities are written as log10 Kd with Kd in nM; a lower number is a better binder. Averages over replicates are reported, and they cover detected replicates only. An entry "nd" has no value in the source: the pair was not observed among the diploids in that replicate. This suggests poor binding but is not conclusive.

With GFSLNSYGIS | VIYSDGRRTFYGDSVK | GQTAGTFDG the result was 1.23, nd, 1.18, nd, 1.94, nd (mean 1.45; controls 0 of 18).
With GFTLDSYGIS | VIYSDGRRTFYGDSVK | GRVAGTFDT the result was nd, nd, nd, nd, nd, nd (controls 0 of 18).
With GFSLNEYGIS | VIYSDGRRTFYGDSVK | GRTAGTFDV the result was -0.50, -0.24, 0.25, -0.09, 0.22, -0.01 (mean -0.06; controls 1 of 18).
With GFSLNSYGIS | VIYSDGRRTFYQDSVK | GEVAGTFDS the result was 0.18, 0.18, -0.09, 0.11, 0.14, 0.33 (mean 0.14; controls 1 of 18).
With GFSLNSYGIS | VIYSDGRRTAYGDSVK | GSAAGTFDS the result was 1.13, -0.54, 0.94, -0.37, 0.63, 0.10 (mean 0.31; controls 0 of 18).
With YFSLNSYGIS | VIYSDGRRTFYADSVK | GRTAGTFDS the result was 0.62, 0.04, nd, nd, nd, 1.34 (mean 0.67; controls 0 of 18).
With GFSLNRYGIS | VIYSDGRRTFYGDSVK | GQTAGTFDS the result was 1.85, nd, 2.04, 0.62, 1.64, 0.31 (mean 1.29; controls 0 of 18).
With GFSLNSYGIS | VIYSDGRRTFYADEVK | GRTAGTFDS the result was 0.34, 0.00, 0.10, 0.21, 0.29, 0.12 (mean 0.18; controls 0 of 18).
With GFTLNSYGIS | VIYSDGRRTFYKDSVK | GQTAGTFDS the result was 1.69, 1.14, 0.65, 0.92, 1.93, 1.08 (mean 1.24; controls 0 of 18).
With GFSLKSYGIS | VIYSDGRRTFYGDSVK | GRTAGTFDS the result was nd, nd, 1.04, 1.79, 1.15, nd (mean 1.33; controls 1 of 18).
With GFSLNGYGIS | VIYSDGRRTFYGDSVK | GRTAGTFDS the result was 1.19, 1.45, 1.15, 1.04, 1.45, 1.25 (mean 1.26; controls 4 of 18).
With GFSLNDYGIS | VIYSDGRRTFYADSVK | GNAAGTFDS the result was -0.02, 0.23, -0.05, 0.03, -0.10, -0.05 (mean 0.01; controls 1 of 18).
With GFTLNEYGIS | VIYSDGRRTFYGDSVK | GRTAGTFDF the result was 1.45, 1.79, nd, nd, nd, nd (mean 1.62; controls 0 of 18).
With GFTLNSYGIS | VIYSDGRRTFYADSVK | GREAGTFDS the result was 0.00, -0.19, -0.36, -0.35, -0.45, -0.06 (mean -0.24; controls 0 of 18).
With GFSLNEYGIS | VIYSDGRRTFYGDSVK | GRTAGTFDL the result was 0.22, 0.36, 0.32, -0.24, 0.29, 0.33 (mean 0.21; controls 0 of 18).
With GFSLNSYGIS | VIYSDGRRSFYGDSVK | GRTAGTFDS the result was 1.20, 0.67, 0.78, 0.67, 0.90, 0.75 (mean 0.83; controls 0 of 18).
With GFSLNTYGIS | VIYSDGRRTFYGDSVK | GRNAGTFDS the result was 0.09, 0.03, 0.15, -0.10, 0.24, 0.27 (mean 0.11; controls 0 of 18).
With GFDLNSYGIS | VIYSDGRRTFYGDSVK | GREAGTFDS the result was 0.26, 0.31, 0.25, 0.12, 0.04, 0.18 (mean 0.19; controls 0 of 18).
With GFDLNSYGIS | VIYSDGRRTFYADSVK | GRTAGTFDT the result was 0.39, 0.57, -0.26, -0.41, -0.19, 0.18 (mean 0.05; controls 0 of 18).
With GFPLNEYGIS | VIYSDGRRTFYGDSVK | GRNAGTFDS the result was 1.57, 0.82, 0.58, 0.74, 0.56, 0.66 (mean 0.82; controls 1 of 18).
With GFSLNSYGIS | VIYSDGRRTFYGDSVK | GREAGTFDT the result was -0.06, -0.41, -0.38, -0.60, -0.40, -0.06 (mean -0.32; controls 1 of 18).
With GFTLDSYGIS | VIYSDGRRTFYGDSVK | GRTAGTFDT the result was 0.22, 0.92, 0.36, 0.41, 0.38, 0.25 (mean 0.42; controls 0 of 18).
With GFDLNSYGIS | VIYSDGRRTFYIDSVK | GRTAGTFDS the result was 0.21, 0.69, 0.22, -0.07, 2.51, 0.08 (mean 0.61; controls 1 of 18).
With GKSLNSYGIS | VIYSDGRRTFYKDSVK | GRTAGTFDS the result was nd, 3.25, nd, nd, nd, nd (controls 1 of 18).
With GFDLNNYGIS | VIYSDGRRTFYGDSVK | GRTAGTFDS the result was nd, nd, -0.61, nd, -1.11, nd (mean -0.86; controls 0 of 18).
With LFSLNEYGIS | VIYSDGRRTFYGDSVK | GRTAGTFDS the result was 1.79, 1.20, 0.53, 0.95, 1.15, 1.49 (mean 1.18; controls 1 of 18).
With GFNLNSYGIS | VIYSDGRRTFYADQVK | GRTAGTFDS the result was -0.42, 0.60, 0.51, 0.31, 0.40, -0.02 (mean 0.23; controls 0 of 18).
With GFSLNEYGIS | VIYSDGRRTFYSDSVK | GQAAGTFDS the result was 0.52, -0.74, -0.98, -0.28, -1.36, -0.79 (mean -0.61; controls 0 of 18).
With GFSLNEYGIS | VIYSDGRRTFYSDSVK | GKAAGTFDS the result was -0.04, -0.28, -0.21, 0.02, -0.22, -0.29 (mean -0.17; controls 0 of 18).
With SFSLNSYGIS | VIYSDGRRTFYGDSVK | GEAAGTFDS the result was 0.76, nd, nd, nd, nd, nd (controls 1 of 18).
With GFTLNSYGIS | VIYSDGRRTFYGDSVK | GRMAGTFDT the result was 1.57, nd, 1.22, nd, nd, nd (mean 1.39; controls 0 of 18).
With GFDLNEYGIS | VIYSDGRRTFYGDSVK | GREAGTFDS the result was -0.19, -0.16, -0.23, -0.53, -0.40, -0.40 (mean -0.32; controls 0 of 18).
With GFELNSYGIS | VIYSDGRRTFYADAVK | GRTAGTFDS the result was 0.53, 1.74, 0.65, 0.61, 2.62, 0.54 (mean 1.11; controls 0 of 18).
With GFSLNSYGIS | VIYADGRRTFYGDSVK | GHAAGTFDS the result was -0.05, -0.05, -0.15, -0.11, -0.34, -0.06 (mean -0.13; controls 0 of 18).
With GFSLNEYGIS | VIYSDGRRTFYGDSVK | GRAAGTFDN the result was -0.11, 0.32, 0.19, -0.47, 0.01, 0.52 (mean 0.08; controls 0 of 18).
With GFSLNSYGIS | VIYSDGRRTFYTDSVK | GEQAGTFDS the result was 0.50, 0.30, 0.26, 0.48, 0.75, 0.31 (mean 0.43; controls 2 of 18).
With GFSLNNYGIS | VIYSDGRRTFYGDSVK | GVTAGTFDS the result was 1.54, 1.97, 1.40, 0.65, 1.13, 0.80 (mean 1.25; controls 0 of 18).
With GFTLNEYGIS | VIYADGRRTFYGDSVK | GQAAGTFDS the result was -0.16, -0.62, 0.55, -0.63, -0.58, -0.49 (mean -0.32; controls 0 of 18).
With GFSLNSYGIS | VIYSDGRRTAYGDSVK | GQAAGTFDS the result was 1.52, 0.88, 0.96, 1.22, 1.73, 1.71 (mean 1.34; controls 0 of 18).
With GFSLNEYGIS | VIYSDGHRTFYGDSVK | GRTAGTFDS the result was -0.20, -0.41, -0.44, -0.67, -0.64, -0.13 (mean -0.42; controls 0 of 18).
With GFSLNSYGIS | VIYSDGRRTFYSDNVK | GEAAGTFDS the result was 0.44, 0.31, 0.24, 0.19, 0.01, 0.27 (mean 0.24; controls 0 of 18).
With GFDLNSYGIS | VIYSDGRRTFYKDSVK | GRAAGTFDS the result was 0.48, 0.14, 0.07, 0.41, 0.15, 0.38 (mean 0.27; controls 0 of 18).
With GFSLNSYGIS | VIYSDGRRTFYADSVK | GRVAGTFDG the result was 0.33, 0.39, 0.31, 0.34, 0.58, 0.71 (mean 0.44; controls 0 of 18).
With GFTLNSYGIS | VIYSDGKRTFYGDSVK | GRVAGTFDV the result was 1.55, 1.59, 0.77, 1.62, nd, 1.50 (mean 1.41; controls 0 of 18).
With GFTLNEYGIS | VIYSDGRRTFYGESVK | GRTAGTFDS the result was nd, -0.02, nd, -0.52, nd, 0.24 (mean -0.10; controls 0 of 18).

Picked from the list: the 6 lowest averages where every replicate gave a value.

CDR-H1	CDR-H2	CDR-H3	replicates, log10 nM	log10 Kd (nM), mean	control signals
GFSLNEYGIS	VIYSDGRRTFYSDSVK	GQAAGTFDS	0.52, -0.74, -0.98, -0.28, -1.36, -0.79	-0.61	0 of 18
GFSLNEYGIS	VIYSDGHRTFYGDSVK	GRTAGTFDS	-0.20, -0.41, -0.44, -0.67, -0.64, -0.13	-0.42	0 of 18
GFTLNEYGIS	VIYADGRRTFYGDSVK	GQAAGTFDS	-0.16, -0.62, 0.55, -0.63, -0.58, -0.49	-0.32	0 of 18
GFDLNEYGIS	VIYSDGRRTFYGDSVK	GREAGTFDS	-0.19, -0.16, -0.23, -0.53, -0.40, -0.40	-0.32	0 of 18
GFSLNSYGIS	VIYSDGRRTFYGDSVK	GREAGTFDT	-0.06, -0.41, -0.38, -0.60, -0.40, -0.06	-0.32	1 of 18
GFTLNSYGIS	VIYSDGRRTFYADSVK	GREAGTFDS	0.00, -0.19, -0.36, -0.35, -0.45, -0.06	-0.24	0 of 18

The authors' rule: three or more of the six replicates give a measured affinity, fewer mean a poor binder. Background: pairings of all heavy chain designs with three empty control strains gave a value in 1% of cases (median 2.08, 5th percentile 0.84). Values in that range, when seen in few replicates, are hard to tell from nonspecific mating. For each scFv, signals with the empty controls are counted beside the result. Values of this round are not directly comparable with the first-round values of the same sequences.